Our source for the inhibition values is PubChem BioAssay AID720648 (The Scripps Research Institute Molecular Screening Center, 2013).

Chains of the proteins cited; added tags and fusions are not shown. Lines headed by an entry give the natural chain unless they say otherwise; changes in a name come on top.
UniProt P78536: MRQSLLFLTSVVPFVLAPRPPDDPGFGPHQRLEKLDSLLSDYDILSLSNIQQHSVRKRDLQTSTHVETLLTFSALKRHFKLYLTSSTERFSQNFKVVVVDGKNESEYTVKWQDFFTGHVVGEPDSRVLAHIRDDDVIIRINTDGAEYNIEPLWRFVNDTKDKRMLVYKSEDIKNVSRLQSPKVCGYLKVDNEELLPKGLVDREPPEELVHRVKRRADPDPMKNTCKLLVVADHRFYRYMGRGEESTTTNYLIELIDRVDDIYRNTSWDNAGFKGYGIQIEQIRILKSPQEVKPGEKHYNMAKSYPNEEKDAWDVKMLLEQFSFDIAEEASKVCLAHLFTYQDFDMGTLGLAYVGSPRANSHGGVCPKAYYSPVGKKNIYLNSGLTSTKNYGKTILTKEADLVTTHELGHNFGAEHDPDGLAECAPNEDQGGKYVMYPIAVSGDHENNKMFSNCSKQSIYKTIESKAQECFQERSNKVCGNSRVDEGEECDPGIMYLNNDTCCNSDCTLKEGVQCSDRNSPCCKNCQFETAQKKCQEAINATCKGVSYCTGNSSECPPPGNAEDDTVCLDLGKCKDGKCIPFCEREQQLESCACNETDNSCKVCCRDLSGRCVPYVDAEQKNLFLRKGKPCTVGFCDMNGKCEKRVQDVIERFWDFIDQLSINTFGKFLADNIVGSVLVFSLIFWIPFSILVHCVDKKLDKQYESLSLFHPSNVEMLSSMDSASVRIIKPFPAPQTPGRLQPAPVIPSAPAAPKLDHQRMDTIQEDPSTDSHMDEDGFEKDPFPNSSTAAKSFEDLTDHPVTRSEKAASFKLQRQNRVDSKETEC

The entries are a selection whose mix differs from that of the whole data set. Calls of active or inactive are those of the source.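 The calls were made as follows: active = inhibition above the mean of compounds lying between control limits plus 3 SD, set per campaign (cut at about 8.5% in these data); inactive = the rest.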

The target in the assay is Disintegrin and metalloproteinase domain-containing protein 17 (Homo sapiens) (UniProt P78536). The assay is described as follows: inhibition of ADAM17 peptide cleavage – biochemical, QFRET, primary screen (AID 720648).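 Also: 0% = DMSO-only wells as the low control.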 The following applies: recombinant ADAM17, EDANS/DABCYL FRET peptide cleavage; at 6.95 µM; active compounds read high.
As a reminder, the inhibition is the drop in the measured response relative to a control, in per cent. Regarding `CCNC(=S)/N=C(\N)N[N+](=O)[O-]`, the inhibition is inactive: -0.21%. In the case of `O=C(NC1CCS(=O)(=O)C1)NP(=S)(Oc1ccccc1)Oc1ccccc1` (stereo unspecified), the inhibition was inactive: 1.88%. In the case of `O=P1(N(CCCl)CCCl)OCCC2CCCCN21` (stereo unspecified), the inhibition is inactive: 2.79%. For `Cc1ccccc1CN(C)C(=O)COC(=O)C(O)(c1ccccc1)c1ccccc1`, the inhibition was inactive: -3.99%.

For `C[C@@H]1C=CCP(=O)(Oc2ccccc2)O1` (stereo partly specified), the inhibition was inactive: 1.24%. With `C[C@H]1OP(=O)(Oc2ccccc2)C[C@@H]2O[C@@H]21` (stereo partly specified) the figure was inactive: -0.81%; with `N#C/C(=C\c1ccc(N(CCBr)CCBr)cc1)C(N)=O`, inactive: -2.57%. Next, `CC(=O)c1ccc(N2CC2c2ccncc2)cc1` (stereo unspecified): inactive: -2.27%; `COC(=O)C1(C)COP(=O)(NCc2ccccc2)OC1` (stereo unspecified): inactive: -6.45%; `CC(=O)Nc1ccc([As](=O)(O)O)c(O)c1`: inactive: -4.2%.

For `CC(=O)Nc1ccc(Oc2c([N+](=O)[O-])cc([N+](=O)[O-])cc2[N+](=O)[O-])cc1`, the inhibition is inactive: -3%. On to `O=P1(Nc2nc3ccc(Cl)cc3s2)COc2ccccc2O1` (stereo unspecified), for which the inhibition is inactive: -1.93%. As for `CCOc1ccc(C2=NCC(CBr)S2)cc1` (stereo unspecified), the inhibition was inactive: 0.55%. With `CC(C)(C)C(=O)NC(Sc1ccccc1)C(Cl)(Cl)Cl` (stereo unspecified), the inhibition is inactive: -0.94%. Turning to `CCc1cc(O)c([N+](=O)[O-])c(C)c1[N+](=O)[O-]`, the inhibition was inactive: -0.68%. In the case of `CC(C)C(=O)NC(Sc1ccccc1)C(Cl)(Cl)Cl` (stereo unspecified), the inhibition was inactive: -4.01%. With `O=P(Nc1nccs1)(c1ccccc1)c1ccccc1` the figure was inactive: -0.7%; with `c1nnnn1CCn1cnnn1`, inactive: 0.27%; with `O=[As](O)(c1ccccc1)c1ccc(O)cc1`, inactive: 2.99%.

With `CC(=O)NC(SC(=S)N(C)C)C(Cl)(Cl)Cl` (stereo unspecified), the inhibition is inactive: -2.56%. On to `O=[N+]([O-])c1ncn(CCn2cnc([N+](=O)[O-])n2)n1`, for which the inhibition is inactive: -6.67%.

In the case of `O=C(OC1CN2CCC1CC2)c1cccc(Cl)c1` (stereo unspecified), the inhibition was inactive: 2.38%. Next, `C/C(N)=N\P(=O)(OCc1ccccc1)OCc1ccccc1`: inactive: 2.16%. Turning to `Nc1ccc([As](=O)(O)c2ccc([N+](=O)[O-])cc2)cc1`, the inhibition is inactive: -1.98%. `C(Cc1nn[nH]n1)Cc1nn[nH]n1`: the inhibition was inactive: 0.33%.

Consider `O=P(Nc1ccccn1)(c1ccc(Br)cc1)c1ccc(Br)cc1`, for which the inhibition is inactive: -2.5%.

In the case of `CN(C)C1(CNC(=O)c2ccc(Cl)c(S(N)(=O)=O)c2)CCCCC1`, the inhibition is inactive: -0.66%. For `Nc1ccc(CCCCOc2ccccc2)cc1`, the inhibition was inactive: 1.95%. On to `COc1ccc(N)c([N+](=O)[O-])c1[N+](=O)[O-]`, for which the inhibition was inactive: 6.11%. With `O=P(Nc1nc2ccccc2s1)(c1ccccc1)c1ccccc1` the figure was inactive: -5.4%. For `C[C@H]1OP(=O)(Oc2ccccc2)[C@H](O)[C@H](O)[C@H]1N=[N+]=[N-]` (stereo partly specified), the inhibition is inactive: -4.66%. For `O=[N+]([O-])c1ncn(CCn2ncnc2[N+](=O)[O-])n1`, the inhibition was inactive: -5.04%. Next, `CC(C)(C)C(=O)NC(Sc1ccncn1)C(Cl)(Cl)Cl` (stereo unspecified): inactive: -0.47%; `O=C(O)CNc1ccc([As](=O)(O)O)cc1`: inactive: -5.74%; `O=[N+]([O-])c1cccc(NC2=NCC(CBr)S2)c1` (stereo unspecified): inactive: -6.03%. As for `COC(=O)C1(C)COP(=O)(Nc2ccccc2)OC1` (stereo unspecified), the inhibition was inactive: -5.22%. With `O=P1(N(CCCl)CCCl)OCCCS1` (stereo unspecified) the figure was inactive: -1.12%; with `O=C(Nc1cc([As](=O)(O)O)ccc1O)c1ccccc1`, inactive: 0.68%; with `CCN(/C(=N/P(=O)(N1CCOCC1)N1CCOCC1)N1CCOCC1)c1ccc(OC)cc1`, inactive: 2.1%. Regarding `Nc1ccc([As](=O)(O)c2ccc(N)cc2)cc1`, the inhibition was inactive: -6.97%. Take `C[N+]1=C2C=CC=CC=C2SC12C([N+](=O)[O-])=CC([N+](=O)[O-])=C[C-]2[N+](=O)[O-]` (stereo unspecified): the inhibition is inactive: 2.44%. Take `c1cc(-c2nn[nH]n2)ccc1-c1nn[nH]n1`: the inhibition was inactive: -2.09%. Take `CC1CCN(C(=O)Oc2c(Cl)cc(Cl)c3cccnc23)CC1`: the inhibition was inactive: -1.62%. Next, `CC(C)=N/N=C(\N)N[N+](=O)[O-]`: inactive: 0.86%; `CC(C)c1nc(Nc2ccccc2)n(P(=O)(N(C)C)N(C)C)n1`: inactive: 1.75%; `CN(C)C(=O)OCCc1n(C)cc[n+]1C`: inactive: -0.79%. Consider `COc1ccc(C2=NCC(CBr)S2)cc1` (stereo unspecified), for which the inhibition is inactive: -5.63%.

Regarding `Cc1ccc(NP(=O)(Oc2ccccc2)Oc2ccccc2)nc1`, the inhibition was inactive: -7.4%. Consider `CCc1nc2c(n1)c1c(non1O)c1c2no[n+]1[O-]`, for which the inhibition was inactive: -3.05%.

As for `O=[N+]([O-])c1cc([N+](=O)[O-])c(CCNc2ccccc2)c([N+](=O)[O-])c1`, the inhibition is active: 9.95%. In the case of `O=[N+]([O-])c1cccc2n[nH]nc12`, the inhibition is inactive: -2.61%. `CC(=O)N1C2C3N(C(C)=O)C1C1N(C(C)=O)C(C(N1C(C)=O)N3C(C)=O)N2C(C)=O`: the inhibition is inactive: 1.2%. On to `Oc1ccccc1CNc1ccccn1`, for which the inhibition was inactive: -3.22%. With `O=C(NC(Sc1ccncn1)C(Cl)(Cl)Cl)c1ccccc1` (stereo unspecified) the figure was inactive: 0.31%; with `CC(C)CC(=O)NC(Sc1ccc(Cl)cc1)C(Cl)(Cl)Cl` (stereo unspecified), inactive: -1.78%; with `Nc1cc(N)c2nonc2c1[N+](=O)[O-]`, inactive: -1.47%. In the case of `CN(C(=O)Cc1ccc(Cl)c(Cl)c1)[C@H]1CCCC[C@H]1N1CCCC1`, the inhibition is inactive: 4.18%.

Consider `Cc1ccc(N/C(=N/P(=O)(N2CCOCC2)N2CCOCC2)N2CCOCC2)cc1`, for which the inhibition was inactive: -2.73%. As for `NC(=O)c1cc([N+](=O)[O-])cc([N+](=O)[O-])c1N`, the inhibition is inactive: 2.53%. `Clc1ccc(Cl)c(NC2=NCC(CBr)S2)c1` (stereo unspecified): the inhibition is inactive: -3.03%. Take `CN1CCCC(OC(=O)C(c2ccccc2)c2ccccc2)C1` (stereo unspecified): the inhibition was inactive: -1.48%. As to `COc1ccccc1OP(=O)(Nc1ccc(C)cn1)Oc1ccccc1OC`, the inhibition was inactive: -4.04%.

With `Cc1ccc(OP(=O)(Nc2nccs2)Oc2ccc(C)cc2)cc1`, the inhibition was inactive: -3.06%. Turning to `Nc1cccc2ccc([As](=O)(O)O)cc12`, the inhibition is inactive: -160%.

As for `CN(C(=O)Cc1ccccc1)C1CC[C@@]2(CCCO2)C[C@@H]1N1CCCC1` (stereo partly specified), the inhibition is inactive: -0.42%. On to `CCN(N=Nc1nonc1N)c1nonc1N`, for which the inhibition was inactive: 3.2%. In the case of `CN(C)P(=O)(N(C)C)n1c(Nc2ccccc2)nnc1-c1ccccc1`, the inhibition is inactive: 0.19%. `O=P(Nc1nc2ccc(Cl)cc2s1)(c1ccccc1)c1ccccc1`: the inhibition was inactive: 5.14%. With `O=C(O)c1ccccc1[As](=O)(O)O` the figure was inactive: -0.16%; with `CC(=O)Nc1ccc([As](=O)(O)O)cc1`, inactive: -5.72%; with `CCCC1OP(N)(=O)OCC1CC` (stereo unspecified), inactive: -1.69%. For the compound `CCn1c(=O)n(C2CCN(CC3CCCCCCC3)C[C@H]2CO)c2ccccc21` (stereo partly specified), the inhibition was inactive: 0.55%. `CCOP(=O)(Nc1ccccc1)OCC`: the inhibition was inactive: 2%. Turning to `Cc1cc(SC(NC(=O)c2ccc(F)cc2)C(Cl)(Cl)Cl)ncn1` (stereo unspecified), the inhibition is inactive: -2.45%. With `Cc1ccc(NP(=O)(Oc2ccccc2F)Oc2ccccc2F)nc1` the figure was inactive: -3.23%.

For the compound `CN(C(=O)Cc1ccc(Cl)c(Cl)c1)[C@H]1CCCC[C@@H]1N1CCCC1`, the inhibition was inactive: -9.09%.
